Assay results reported in patent US20040204474A1, “Carvedilol-lipophilic solutions” (priority 2000, published 2004).

Experiments:
[1] = solubility of carvedilol in adjuvants and solvents with lipophilic character; assay type: physicochemical
[2] = gastrointestinal resorption after peroral administration; assay type: in vivo; conditions: passage through the gastrointestinal tract

- dissolving properties of diethylene glycol monoethyl ether (Transcutol P) for carvedilol [1]: similarly good dissolving properties
SMILES: COc1ccccc1OCCNCC(O)COc1cccc2[nH]c3ccccc3c12 (centres unmarked) [carvedilol, 1-(4-carbazolyloxy)-3-[2-(2-methoxyphenoxy)ethyl-amino]-2-propanol]
- resorption in ileum and colon relative to stomach [2]: only a fraction of the resorption in the stomach
